# From patent publication US20170239363A1
# The chains behind the UniProt entries cited, without tags or fusion partners. Residues count along the entry.
# UniProt P32301, 22-463: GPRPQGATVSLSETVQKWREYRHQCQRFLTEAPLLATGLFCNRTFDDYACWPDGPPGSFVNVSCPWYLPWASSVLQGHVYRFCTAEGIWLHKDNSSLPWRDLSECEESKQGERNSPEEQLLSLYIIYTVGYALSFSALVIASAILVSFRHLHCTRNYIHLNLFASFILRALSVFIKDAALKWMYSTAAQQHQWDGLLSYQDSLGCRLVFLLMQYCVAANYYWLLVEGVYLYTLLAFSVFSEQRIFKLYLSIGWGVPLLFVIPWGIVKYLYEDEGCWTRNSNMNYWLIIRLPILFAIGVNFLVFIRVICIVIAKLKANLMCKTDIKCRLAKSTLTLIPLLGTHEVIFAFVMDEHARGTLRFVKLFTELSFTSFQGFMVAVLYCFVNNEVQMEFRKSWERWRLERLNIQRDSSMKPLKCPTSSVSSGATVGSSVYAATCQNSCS
# Target: rat glucagon-like peptide-1 receptor (GLP-1R) on stably transfected BHK cells (rat) (UniProt P32301)
# Assay: cell-based or functional assay
substance,measurement,value
"66.2 kDa EG9 exendin-C-POEGMA conjugate (DPP4-treated, as in the cAMP assay) (from UniProt P26349) (peptide)","EC50 (nM), intracellular cAMP response in BHK cells expressing rat GLP-1R",2.1 nM
